Results on one substance are retold here after publication PMC5326799, “Discovery of Compounds that Positively Modulate the High Affinity Choline Transporter” (Frontiers in Molecular Neuroscience, 2017).

This experiment concerns the target T1, CHT (Homo sapiens, UniProt Q9GZV3).
T1 sequence (Q9GZV3 1-580): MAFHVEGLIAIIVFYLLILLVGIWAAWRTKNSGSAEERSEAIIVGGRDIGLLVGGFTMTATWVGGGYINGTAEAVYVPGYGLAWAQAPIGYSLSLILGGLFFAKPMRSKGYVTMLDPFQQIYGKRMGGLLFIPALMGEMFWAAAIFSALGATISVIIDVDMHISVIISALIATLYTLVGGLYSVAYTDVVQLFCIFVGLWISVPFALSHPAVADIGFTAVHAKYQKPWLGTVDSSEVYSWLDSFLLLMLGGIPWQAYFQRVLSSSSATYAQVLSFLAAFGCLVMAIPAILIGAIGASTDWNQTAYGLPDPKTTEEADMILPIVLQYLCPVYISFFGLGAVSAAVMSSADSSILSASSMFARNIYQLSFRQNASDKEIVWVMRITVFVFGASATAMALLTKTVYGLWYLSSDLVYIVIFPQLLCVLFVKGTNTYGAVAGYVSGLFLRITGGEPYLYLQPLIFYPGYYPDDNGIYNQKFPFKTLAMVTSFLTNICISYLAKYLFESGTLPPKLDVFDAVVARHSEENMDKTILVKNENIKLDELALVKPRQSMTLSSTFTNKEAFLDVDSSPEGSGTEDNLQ
The conditions noted are these: read-out: Km, saturation of D9-Choline uptake; HEK293 CHT-WT4.

For “deuterated choline chloride-(trimethyl-d9) [Compound D9-choline]”, the Km is 7 µM.
